Results on one substance are retold here after patent publication EP2330125A2 (priority 2005, dated 2007).

This assay addresses calcitonin receptor. As to conditions: read-out: Receptor Binding Assay CT.

On to “^29βAla-βAla-Exendin(1-28),hAmylin(1-7)-^11,18Arg-sCt(8-27)-hAmylin(33-37) [Compound 14]”, for which the IC50 amounted to 0.1 nM.
